# Test results taken from patent publication US11168364B2, “Method and system for sequencing nucleic acids” (priority 2016, dated 2021).
# Target: T1, Bsu DNA polymerase large fragment / primed template nucleic acid (Bacillus subtilis, UniProt O34996)
# T1 construct: 350 U/ml Bsu DNA polymerase large fragment
# T1 sequence (O34996 297-880 limits assumed): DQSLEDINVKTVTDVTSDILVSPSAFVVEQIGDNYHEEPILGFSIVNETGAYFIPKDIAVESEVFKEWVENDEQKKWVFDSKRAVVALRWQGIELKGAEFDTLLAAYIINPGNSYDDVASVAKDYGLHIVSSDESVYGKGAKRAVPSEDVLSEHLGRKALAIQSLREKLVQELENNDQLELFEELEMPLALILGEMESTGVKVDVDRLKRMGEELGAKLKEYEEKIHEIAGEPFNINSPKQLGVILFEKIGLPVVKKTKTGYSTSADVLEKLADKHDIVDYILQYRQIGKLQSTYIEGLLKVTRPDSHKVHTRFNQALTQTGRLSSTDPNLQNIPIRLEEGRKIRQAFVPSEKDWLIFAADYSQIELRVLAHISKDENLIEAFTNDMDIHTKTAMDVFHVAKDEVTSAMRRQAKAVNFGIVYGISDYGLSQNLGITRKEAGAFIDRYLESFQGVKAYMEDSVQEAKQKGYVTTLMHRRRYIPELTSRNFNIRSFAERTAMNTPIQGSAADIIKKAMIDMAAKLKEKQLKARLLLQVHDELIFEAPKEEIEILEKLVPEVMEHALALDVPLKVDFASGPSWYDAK
# Experiment: Biolayer interferometry of polymerase binding to immobilized primed template with cognate or non-cognate nucleotide, salt titration (Example 19)
# Settings: NaCl 400 mM
# Text: A FORTEBIO® (Menlo Park, Calif.) OCTET® instrument employing biolayer interferometry to measure binding reactions at the surface of a fiber optic tip was used in a multiwell plate format to investigate differential stability of binary and ternary complexes. Template strands biotinylated at their 5′-ends were used to immobilize the primed template nucleic acid onto fiber optic tips functionalized with streptavidin (SA) according to standard procedures. […] Tips were first equilibrated in a Tris-buffered solution containing 30 mM Tris-HCl (pH 8.0), and 0.1 mM EDTA before commencing the cycling protocol. Independent binding reactions for the two test nucleotides (i.e., cognate and non-cognate nucleotides) were carried out in the presence of concentrations of NaCl, KCl, or potassium glutamate that varied from 50 mM to 500 mM. […] When using a single contacting step to effect binding of polymerase and nucleotide to the primed template nucleic acid, the binding step was 45 seconds long, with binding interactions being monitored continuously. […] Results from interferometry monitoring were analyzed to identify formation of ternary complexes (i.e., identifying cognate nucleotide) or binary complexes (i.e., identifying non-cognate nucleotide).
smiles,measurement,value
[Cl-].[Na+] [NaCl],Fold Enhancement (Ternary/Binary),5.93
